According to publication PMC10388327, “Dual Piperidine-Based Histamine H3 and Sigma-1 Receptor Ligands in the Treatment of Nociceptive and Neuropathic Pain” (Journal of Medicinal Chemistry, 2023):
Where a name gives a salt, the structure may show the parent alone.

System: sigma-1 receptor (σ1R)
Assay: σ1R radioligand binding ([3H](+)-pentazocine)
Set-up: species or system guinea pig
Details: ratio of σ2R Ki to σ1R Ki

**Q.** For `c1ccc(-c2ccc(OCCCCCN3CCCCC3)cc2)cc1` [Compound 10, 1-(5-([1,1′-Biphenyl]-4-yloxy)pentyl)piperidine Oxalate], which σ2/σ1 ratio is on record?
**A.** 0.1

**Q.** How did the σ2/σ1 ratio turn out when `c1ccc(-c2ccc(OCCCCCCN3CCCCC3)cc2)cc1` [Compound 11, 1-(6-([1,1′-Biphenyl]-4-yloxy)hexyl)piperidine Oxalate] was run?
**A.** 0.4
